Laboratory results: BindingDB's records for doi:10.1016/s0891-0618(03)00032-2 (University of Michigan, 2003)

Protein sequences, listed by entry. Tags and fused reporters are not part of them.
UniProt P33535, whole entry: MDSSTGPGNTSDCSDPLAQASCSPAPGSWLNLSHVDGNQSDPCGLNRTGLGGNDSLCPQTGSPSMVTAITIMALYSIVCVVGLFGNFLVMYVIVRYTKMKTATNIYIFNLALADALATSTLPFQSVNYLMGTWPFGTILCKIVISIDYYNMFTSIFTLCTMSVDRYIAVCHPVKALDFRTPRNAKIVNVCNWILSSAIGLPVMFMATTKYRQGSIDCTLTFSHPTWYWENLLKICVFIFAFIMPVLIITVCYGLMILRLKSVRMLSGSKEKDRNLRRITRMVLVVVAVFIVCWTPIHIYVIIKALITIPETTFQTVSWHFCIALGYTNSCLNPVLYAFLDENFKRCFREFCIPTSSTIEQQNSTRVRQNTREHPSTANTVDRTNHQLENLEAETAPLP

Target: Mu-type opioid receptor (Rattus norvegicus, UniProt P33535)

C[C@@H](NC(=O)[C@@H](N)Cc1ccc(O)cc1)C(=O)NCC(=O)N(C)[C@@H](Cc1ccccc1)C(=O)NCCO [CAS_100929-53-1]
Ki: 32 nM
